Measurements reported in patent US9302985B2, “Benzyl sulfonamide derivatives as RORc modulators” (Genentech, Inc., priority 2012, dated 2016).

The chains behind the UniProt entries cited, without tags or fusion partners. Residues count along the entry.
UniProt P51449, 269-508, species assumed: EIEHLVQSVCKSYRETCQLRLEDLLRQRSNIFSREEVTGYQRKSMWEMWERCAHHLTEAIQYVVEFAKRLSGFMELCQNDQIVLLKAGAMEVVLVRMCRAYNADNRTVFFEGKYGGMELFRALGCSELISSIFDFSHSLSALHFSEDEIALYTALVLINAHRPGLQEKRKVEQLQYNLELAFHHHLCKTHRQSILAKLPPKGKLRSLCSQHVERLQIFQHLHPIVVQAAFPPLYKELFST

Target: RORc ligand binding domain (Homo sapiens (Human), UniProt P51449)
Experiment: In vitro RORc Ligand Binding Assay
Conditions: displacement of 6 nM 25-[3H]hydroxycholesterol; 0.6 ug/mL RORc receptor; 3 h at 25° C.
Method: In vitro RORc Ligand Binding Assay
This assay was used to determine a compound's potency in inhibiting activity of RORc by determining, Kiapp, IC50, or percent inhibition values.
On day of the assay, 100 uL of 0.05% CHAPS (in deionized H2O) was added to all wells of the GFB Unifilter plate and allowed soak for 1 h. A wash buffer of 50 mM HEPES (pH 7.4), 150 mM NaCl, and 5 mM MgCl2 was prepared to wash the filter plate. To prepare an assay buffer, BSA was added to the wash buffer to reach 0.01% and DTT was added to reach 1 mM.
The 20× compound stocks were diluted in DMSO with Assay Buffer 4-fold to reach 5× the final test concentration in 25% DMSO (10 uL compound+30 uL Assay Buffer). Solutions were mixed by aspiration several times with a pipette set on 50 uL volume. For the assay, 10 uL of 5× compound stock solutions in 25% DMSO were added to the assay plate in duplicate.
For 25-hydroxycholesterol in 25% DMSO/75% Assay Buffer; 10 uL per well was used for NSB samples. Wells for Total Binding and No Receptor sample determination contained 10 uL of 25% DMSO/75% Assay Buffer per well.
Add 20 uL to all wells to reach 6 nM final concentration in the assay. […]
Using a Packard Filtermate Harvester, the filter plate were washed 4 times following transfer of the incubated samples. […] 50 uL Microscint 0 was added to all wells and read on Topcount protocol Inverted. […]

**Q.** For `CC(C)CN(Cc1ccccc1)S(=O)(=O)c1ccc(-c2ccc(NS(C)(=O)=O)cc2)cc1` [Compound 6, 4′-Methanesulfonyl-amino-biphenyl-4-sulfonic acid benzyl-isobutyl-amide], which IC50 is on record?
**A.** 4.3 µM
